Consider one compound from the OPERA property sets (Mansouri et al. 2018).

For orientation: solubility means the dissolved amount per volume that the medium holds. Low values mean a poorly soluble substance, high ones a readily soluble substance.

Values after ≈ are worked out from the molar mass of the structure shown.

`CC(C)NP(=O)(F)NC(C)C` showed a solubility of 439 mM (≈ 80 mg/mL). This lies in the millimolar range.
